{
  "sequences": {"note": "By UniProt entry, the sequences of proteins in these tests, tags left out. Where a name states a change or a piece, a line headed by the entry shows the natural chain unless it says otherwise.", "UniProt Q9P1W9": "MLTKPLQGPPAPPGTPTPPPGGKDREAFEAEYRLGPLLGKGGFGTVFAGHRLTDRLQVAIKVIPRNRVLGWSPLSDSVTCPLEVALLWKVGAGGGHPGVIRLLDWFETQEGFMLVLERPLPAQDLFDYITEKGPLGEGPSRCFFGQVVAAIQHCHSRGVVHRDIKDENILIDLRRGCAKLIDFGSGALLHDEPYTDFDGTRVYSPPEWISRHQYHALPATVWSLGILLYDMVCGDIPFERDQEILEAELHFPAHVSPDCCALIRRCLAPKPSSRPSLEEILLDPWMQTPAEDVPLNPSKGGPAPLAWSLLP"},
  "source": "paper PMC3480357",
  "about": "“Fragment-Hopping-Based Discovery of a Novel Chemical Series of Proto-Oncogene PIM-1 Kinase Inhibitors” (PLoS ONE, 2012)",
  "target": "PIM-2 (Homo sapiens, UniProt Q9P1W9)",
  "test": "PIM-2 kinase ADP Hunter Plus assay",
  "assay_type": "biochemical",
  "details": "100 µM ATP",
  "description": "Kinase activity was measured with the commercial ADP Hunter™ Plus assay (DiscoveRx Ref. #33-016), a homogeneous assay measuring ADP accumulation, as a universal product of kinase activity. The assay was conducted following the manufacturer’s recommendations and adapting the protein and substrate concentrations for optimal conditions. The kinase assay buffer was 15 mM HEPES, pH 7.4, 20 mM NaCl, 1 mM EGTA, 0.02% Tween-20, 10 mM MgCl2 and 0.1 mg/ml BGG (bovine γ-globulin). All PIM kinase assays were performed with 100 µM PIMtide ([…]) as the peptide substrate and 100 µM ATP. The protein concentrations were 50, 350 and 500 ng/µl for PIM-1, 2 and 3, respectively. To calculate the IC50 of the ETP-compounds, serial 1∶5 dilutions were prepared and the reaction was started with the addition of ATP. The reaction was incubated for 1 h at 25°C. Reagents A and B (DiscoveRx) were sequentially added to the wells, and the plates were incubated for 30 min at 37°C. Fluorescence counts were read in a Victor instrument (Perkin Elmer) with the recommended settings (544 and 580 nm as the excitation and emission wavelengths, respectively). Values were plotted against the inhibitor concentrations and fit to a sigmoid dose–response curve using GraphPad software.",
  "data": [
    {"smiles": "CN1CCC(CNc2ccc3ncc(-c4cccc(OC(F)(F)F)c4)n3n2)CC1", "note": "[Compound 3, reference compound]", "values": [
      {"measurement": "IC50", "result": 1, "unit": "µM"}
    ]}
  ]
}
